Assay results: patent US10125117B2, “Activation or reactivation of ache” (dated 2018)
Like-named read-outs stand apart in the source and are kept apart here.

Sequences of proteins named here, by UniProt entry; tags and fusion partners are left off. Residues count along the entry.
UniProt P22303, 32-614 limits assumed: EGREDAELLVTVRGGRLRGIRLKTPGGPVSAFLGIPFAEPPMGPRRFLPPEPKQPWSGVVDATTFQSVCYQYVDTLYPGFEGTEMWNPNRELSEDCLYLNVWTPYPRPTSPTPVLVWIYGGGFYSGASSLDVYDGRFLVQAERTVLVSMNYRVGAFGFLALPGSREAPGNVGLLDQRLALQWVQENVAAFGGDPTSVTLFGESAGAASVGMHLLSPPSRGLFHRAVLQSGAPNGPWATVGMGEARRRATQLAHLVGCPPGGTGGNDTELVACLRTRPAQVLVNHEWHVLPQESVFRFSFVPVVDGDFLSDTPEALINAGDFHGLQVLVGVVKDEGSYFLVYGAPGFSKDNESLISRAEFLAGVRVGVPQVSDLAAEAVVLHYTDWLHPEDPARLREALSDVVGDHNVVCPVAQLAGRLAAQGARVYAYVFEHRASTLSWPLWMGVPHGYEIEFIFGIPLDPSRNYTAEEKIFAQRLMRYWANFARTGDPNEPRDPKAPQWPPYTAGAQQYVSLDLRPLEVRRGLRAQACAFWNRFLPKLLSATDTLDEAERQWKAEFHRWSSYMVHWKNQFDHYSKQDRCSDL
UniProt P21836, 32-614 limits assumed: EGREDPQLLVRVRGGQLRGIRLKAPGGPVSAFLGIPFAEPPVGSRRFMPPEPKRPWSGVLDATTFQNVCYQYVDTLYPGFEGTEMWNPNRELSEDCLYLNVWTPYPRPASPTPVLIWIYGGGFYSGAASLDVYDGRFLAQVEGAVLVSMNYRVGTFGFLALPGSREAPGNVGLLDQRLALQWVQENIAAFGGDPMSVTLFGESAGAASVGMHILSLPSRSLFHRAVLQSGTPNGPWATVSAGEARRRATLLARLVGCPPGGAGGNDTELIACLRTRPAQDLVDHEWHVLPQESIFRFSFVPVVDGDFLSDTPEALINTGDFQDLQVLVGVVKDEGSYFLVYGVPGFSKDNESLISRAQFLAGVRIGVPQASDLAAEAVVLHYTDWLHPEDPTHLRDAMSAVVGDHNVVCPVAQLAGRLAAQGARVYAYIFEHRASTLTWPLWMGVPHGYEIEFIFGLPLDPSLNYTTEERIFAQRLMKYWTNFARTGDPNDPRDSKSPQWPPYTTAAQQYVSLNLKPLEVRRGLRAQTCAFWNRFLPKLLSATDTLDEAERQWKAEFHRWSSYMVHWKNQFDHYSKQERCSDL
UniProt P06276, 29-602 limits assumed: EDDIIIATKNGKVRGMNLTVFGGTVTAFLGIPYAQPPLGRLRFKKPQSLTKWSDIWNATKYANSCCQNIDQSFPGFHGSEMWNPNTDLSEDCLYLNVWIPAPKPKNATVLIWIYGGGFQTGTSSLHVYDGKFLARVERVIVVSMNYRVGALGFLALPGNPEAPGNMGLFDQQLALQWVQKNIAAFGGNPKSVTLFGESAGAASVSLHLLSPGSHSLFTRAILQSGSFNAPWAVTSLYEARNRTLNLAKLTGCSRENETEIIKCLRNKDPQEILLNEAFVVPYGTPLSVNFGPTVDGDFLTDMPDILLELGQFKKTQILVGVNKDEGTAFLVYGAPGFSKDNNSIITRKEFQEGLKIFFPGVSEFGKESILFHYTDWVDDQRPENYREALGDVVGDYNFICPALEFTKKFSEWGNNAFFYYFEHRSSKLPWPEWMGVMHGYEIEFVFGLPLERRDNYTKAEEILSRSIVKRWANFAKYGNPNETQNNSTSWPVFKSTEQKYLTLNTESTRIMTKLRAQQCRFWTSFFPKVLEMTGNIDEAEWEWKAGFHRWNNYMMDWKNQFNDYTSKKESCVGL

Key:
AChE [1] = biological target: T1, AChE (Homo sapiens, UniProt P22303); test: AChE activity with allosteric activators
AChE [2] = biological target: T1, AChE; test: Solid-phase AChE assay, screening for reactivators of inhibited AChE; details: for reactivation activity on inhibited AChE: screen and expansion libraries, inhibitor DIPF or paraoxon
mouse PO-inhibited AChE = mouse PO-inhibited AChE (Mus musculus, UniProt P21836); test: Reactivation of mouse PO-inhibited AChE compared with human; details: three hours
AChE [3] = biological target: T1, AChE
[4] = biological target: paraoxon inactivated huBuChE (Homo sapiens, UniProt P06276); details: human BuChE inactivated by paraoxon
AChE [5] = biological target: AChE (Mus musculus, UniProt P21836); details: mice, tissues harvested 24 hours after challenge
[6] = biological target: human AChE inhibited by paraoxon (Homo sapiens, UniProt P22303); test: Reactivation of paraoxon-inhibited human AChE; details: concentrations below saturation on hu-AChE
AChE [7] = biological target: T1, AChE; test: Protection of AChE from DFP
Solubility = details: comparison in words
BALB mice = test: Toxicity of ADOC in BALB mice
huAChE adduct with SIMP = huAChE adduct with SIMP (Homo sapiens, UniProt P22303); details: soman-like adduct, after aging
DFP-inhibited AChE = DFP-inhibited AChE (Homo sapiens, UniProt P22303); test: Reactivation of DFP-inhibited AChE (rate constants, reactivation efficacy)

5-[3-(4-Methyl-piperazine-1-yl)-propyl]-10,11-dihydro-5H-dibenzo[b,f]azepeine
activation of AChE activity (AChE [1]): decrease

CCN(CC)Cc1cc(Nc2ccnc3cc(Cl)ccc23)ccc1O
Ka, reactivation (AChE [2]): 3 µM
reactivation activity compared with chloroquine (AChE [2]): higher reactivation activity than chloroquine
reactivation of mouse AChE compared with human (mouse PO-inhibited AChE): faster reactivation of mice and guinea pig AChE than for human
reactivation of mouse AChE compared with human (mouse PO-inhibited AChE; listed as ADQ): better than for human analog
reversibility of AChE inhibition (AChE [3]): reversible
reactivation of BuChE [4]: reactivated
AChE activity in tissues after DFP challenge (AChE [5]): relatively low
reactivation rate (kr2) compared with 2-PAM and HI-6 [6]: faster

CN(C)Cc1cc(C(C)(C)CC(C)(C)C)ccc1O
reactivation activity on inhibited AChE (AChE [2]): identified as reactivators

1-Piperidinomethyl-2-napthol
reactivation activity on inhibited AChE (AChE [2]): identified as reactivators

8-((Dimethylamino)me)-3-(2-fluorophenoxy)-7-hydroxy-2-methyl-4H-chromoen-4-one
reactivation activity on inhibited AChE (AChE [2]): identified as reactivators

NC12CC3CC(CC(C3)C1)C2
activation of AChE activity (AChE [1]): activators
protection of AChE (AChE [7]; 500 μM): enhanced protection
protection of AChE (AChE [7]; 50 and 500 μM): provide protection

1-Morpholinomethyl-2-napthol
reactivation activity on inhibited AChE (AChE [2]): identified as reactivators

CC12CC3CC(C)(C1)CC(N)(C3)C2
activation of AChE activity (AChE [1]): activators

CN1CCN(CCCN2c3ccccc3Sc3ccc(Cl)cc32)CC1
activation of AChE activity (AChE [1]): activators
protection of AChE from DFP (AChE [7]): protect against DFP
protection of AChE from DFP (AChE [7]; listed as Prochlorperazine): effective protector

CCN(CC)Cc1cc(N)ccc1O
reactivation of BuChE [4]: do not reactivate
solubility (Solubility): more soluble than amodiaquine
liver histology (BALB mice; maximum dose (120 mg/kg)): no pathomorphological changes
effect on mice up to seven days after injection (BALB mice; up to 120 mg/kg by injection): no effect

CN1CCN(CCCN2c3ccccc3Sc3ccc(C(F)(F)F)cc32)CC1
activation of AChE activity (AChE [1]): activators
protection of AChE from DFP (AChE [7]): protect against DFP

O=C(NCCCn1ccnc1)c1cc(-c2ccc(Br)cc2)nc2ccccc12
toxicity, distress in mice (mice; 500 mg/kg): not obviously toxic
LD50 (mice; mice): > 500 mg/kg
reactivation of BuChE [4]: do not reactivate
solubility (Solubility): more soluble than amodiaquine

CC(N)C12CC3CC(CC(C3)C1)C2 (centres unmarked)
activation of AChE activity (AChE [1]): activators

pralidoxine
reactivation of AChE inhibited by SIMP, maximal activities (huAChE adduct with SIMP): poorly re-activatable
reactivation rate constant (DFP-inhibited AChE): 0.0567 M⁻¹ s⁻¹

N=C(N)NCCC[C@H](N)C(=O)O
activation of AChE activity (AChE [1]): activators

COc1cc2ccc(=O)oc2cc1O
reactivation activity on inhibited AChE (AChE [2]): reactivators of AChE
reactivation activity on inhibited AChE (AChE [2]; listed as Scopoletin): comparable to pralidoxine activity

NCCCC[C@H](N)C(=O)O
activation of AChE activity (AChE [1]): activators

Cc1cc(CN(C)C)cc(CN(C)C)c1O
reactivation activity on inhibited AChE (AChE [2]): identified as reactivators

COc1cc(C(c2cc3c(cc2O)OCO3)N2CCOCC2)cc(OC)c1OC (centres unmarked)
reactivation activity on inhibited AChE (AChE [2]): identified as reactivators

2-(4-Bromo-phenox)-3-(3-dimethylaminomethyl-2,4-dihydroxy-phenyl)-ethanone
reactivation activity on inhibited AChE (AChE [2]): identified as reactivators

Clc1ccc(OCCCCCn2ccnc2)c(Cl)c1
solubility (Solubility): more soluble than amodiaquine

Oc1ccc(Nc2ccnc3cc(Cl)ccc23)cc1
reactivation activity on inhibited AChE (AChE [2]): identified as reactivators

Cc1onc(-c2ccccc2Cl)c1C(=O)N[C@@H]1C(=O)N2[C@@H]1SC(C)(C)[C@@H]2C(=O)O
reactivation activity on inhibited AChE (AChE [2]): reactivators of AChE

2-(4,5-Dihydro-1H-imidizol-2-yl)phenol
reactivation activity on inhibited AChE (AChE [2]): identified as reactivators
